{"source": "patent US20120309709A1", "about": "“Ion-Channel Regulator Compositions and Methods of Using Same” (priority 2007, published 2012)", "key": {"[1]": {"test_system": "Ca^2+ currents in HIG-82 cells"}, "[2]": {"test_system": "Ca^2+ currents in HIG-82 cells", "assay": "cells", "conditions": "read-out: EC50, inhibition of calcium current"}}, "note": "Where two headings read alike, the source gives them in different places."}
{"molecule": "COc1ccc([C@@H]2Sc3ccccc3N(CCN(C)C)C(=O)[C@@H]2OC(C)=O)cc1", "note": "[diltiazem]", "values": [{"measurement": "block of calcium current", "setting": "[1]; membrane potential 0 mV, added separately", "value": "blocked the current almost completely"}, {"measurement": "block of calcium current", "setting": "[1]; membrane potential −50 mV, single blocker 100 μM", "value": "neither verapamil nor diltiazem could block the current completely"}, {"measurement": "EC50", "setting": "[2]", "value": 12.8, "unit": "µg/mL"}]}
